Patent US10004826B2, “Implantable human liver tissue constructs and uses thereof” (Massachusetts Institute of Technology, priority 2010, dated 2018)

System: CYP450
Settings: intraperitoneal RIF; second week of RIF induction; vs DMSO

Up-regulation of CYP450 activity (BFC) in explants: 11.1(+0.1) fold
SMILES: CO[C@H]1/C=C/O[C@@]2(C)Oc3c(C)c(O)c4c(O)c(c(/C=N/N5CCN(C)CC5)c(O)c4c3C2=O)NC(=O)/C(C)=C\C=C\[C@H](C)[C@H](O)[C@@H](C)[C@@H](O)[C@@H](C)[C@H](OC(C)=O)[C@@H]1C [RIF, rifampin]
